Results published in PMC9435674, “Delineating the activity of the potent nicotinic acetylcholine receptor agonists (+)-anatoxin-a and (−)-hosieine-A” (2022).
Like-named read-outs stand apart in the source and are kept apart here.

By UniProt entry, the sequences of proteins in these tests, tags left out. Residues count along the entry.
UniProt Q8WSF8, 20-236 A155V/A60V limits assumed: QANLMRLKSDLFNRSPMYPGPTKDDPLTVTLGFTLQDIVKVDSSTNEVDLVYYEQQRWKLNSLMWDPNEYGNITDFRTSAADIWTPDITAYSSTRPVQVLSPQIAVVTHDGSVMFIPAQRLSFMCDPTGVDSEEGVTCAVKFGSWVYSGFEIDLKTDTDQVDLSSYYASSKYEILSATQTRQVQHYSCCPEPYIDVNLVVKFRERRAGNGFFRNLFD

Key:
[1] = molecular target: T1, AcAChBP (Aplysia californica, UniProt Q8WSF8, A155V/A60V); settings: cited from earlier work; for N (sites) / ΔG / ΔH / −TΔS: ITC
[2] = molecular target: T1, AcAChBP; test: Isothermal titration calorimetry (ITC) of ligand binding to AcAChBP
[3] = tested on: neuronal α4β2 nAChRs; settings: radioligand competition binding assay, ref Ouyang et al., 2015; cited from earlier work
[4] = molecular target: T1, AcAChBP; test: Equilibrium tryptophan fluorescence-quenching assay

Structure (SMILES)	N (sites) ([1]; ref Davis et al. (2020))	ΔG ([1]; ref Davis et al. (2020)) [kJ/mol]	ΔH ([1]; ref Davis et al. (2020)) [kJ/mol]	−TΔS ([1]; ref Davis et al. (2020)) [kJ/mol]	N (sites) ([1]; ref Rucktooa et al. (2012))	ΔG ([1]; ref Rucktooa et al. (2012)) [kJ/mol]	ΔH ([1]; ref Rucktooa et al. (2012)) [kJ/mol]	−TΔS ([1]; ref Rucktooa et al. (2012)) [kJ/mol]	Kd ([1]; read-out: K d1 (dissociation constant from ITC), ref Davis et al. (2020)) [µM]	Kd ([1]; read-out: K d1 (dissociation constant from ITC), ref Rucktooa et al. (2012)) [µM]	ΔG ([2]; 25°C, n = 3, standard error) [kJ/mol]	ΔH ([2]; 25°C, n = 3, standard error) [kJ/mol]	−TΔS ([2]; 25°C, n = 3, standard error) [kJ/mol]	Ki [3] [µM]	Hill coefficient ([4]; fluorescence titration fitted with specific binding with Hill slope)	Kd ([4]; read-out: K d2 (dissociation constant from fluorescence measurements), tryptophan fluorescence, emission 337 nm, room temperature, n = 3, standard error) [µM]	N (sites), molar ratio ([2]; 25°C, n = 3, standard error)	Kd ([2]; read-out: K d1 (dissociation constant from ITC), 25°C, n = 3, standard error) [µM]
O=c1cccc2n1C[C@@H]1CNC[C@H]2C1	0.6 ± 0.01	-36 ± 1.3	-63.6 ± 5.02	27.6 ± 5.86	0.6	-33.1	-55.6	22.6	0.6	1.6								
CN1CCC[C@H]1c1cccnc1					0.6	-34.7	-52.3	17.6			-32.2 ± 0.42	-74.5 ± 3.8	41.8 ± 3.8					
C[C@@H]1CC2C3Cn4c(cccc4=O)C(CN2C)C31 (stereo partly shown)											-43.5 ± 0.84	-37.2 ± -0.42	-6.28 ± 1.3	< 0.001	2.1 )	0.04	0.7 ± 0.03	0.025
